Values of other authors in patent publication US7217431B2, “Controlled agglomeration” (LifeCycle Pharma A/S, priority 2001, dated 2007).

Conditions: Table 2, figure in brackets after 'Low'

Buprenorphine
Bioavailability: Low (<30%)
